Where two headings read alike, the source gives them in different places.
How the values were obtained:
[1] = design: species or system rodent; settings: in vivo
Description: ^123I-Albumin was intravenously and intrathecally injected into a rodent. FIGS. 10A and 10B are scans of the concentration of ^123I-Albumin after intravenous injection. […] Consequently, the application of forces and increased bolus volumes described herein may be used for low molecular weight compounds as well as larger molecular weight compounds.

[2] = design: species or system rodent; settings: in vivo; remark: listed apart in the source
Description: FIGS. 12A and 13A show scans of the concentration of ^123I-Albumin after injection into the cisterna magnum and lumbar cistern into a rodent respectively. FIGS. 12B and 13B present graphs of the concentration of ^123I-Albumin from the head to the feet at different time points after cisternal injection and intrathecal injection respectively. […] Lymphoseek ([^99mTc]DTPA-mannosyl-dextran, […] Biopharmaceuticals)

^123I-Albumin
distribution in the body [1]: stays relatively localized within the CSF
distribution in the body ([1]; iv): distributed throughout the rodent's body and does not specifically target the CNS
distribution from the head to the feet [2]: more even distribution of albumin from the head to the feet

— US10945951B2, “Apparatus for compound dispersion” (Biogen MA Inc., priority 2014, dated 2021)
